This passage reports κ-receptor selectivity (Ki value ratio) μ/κ, κ-receptor selectivity (Ki value ratio) δ/κ and Ki results from US9963460B1, “Morphinan derivative” (dated 2018).

The chains behind the UniProt entries cited, without tags or fusion partners.
UniProt P35372, whole entry: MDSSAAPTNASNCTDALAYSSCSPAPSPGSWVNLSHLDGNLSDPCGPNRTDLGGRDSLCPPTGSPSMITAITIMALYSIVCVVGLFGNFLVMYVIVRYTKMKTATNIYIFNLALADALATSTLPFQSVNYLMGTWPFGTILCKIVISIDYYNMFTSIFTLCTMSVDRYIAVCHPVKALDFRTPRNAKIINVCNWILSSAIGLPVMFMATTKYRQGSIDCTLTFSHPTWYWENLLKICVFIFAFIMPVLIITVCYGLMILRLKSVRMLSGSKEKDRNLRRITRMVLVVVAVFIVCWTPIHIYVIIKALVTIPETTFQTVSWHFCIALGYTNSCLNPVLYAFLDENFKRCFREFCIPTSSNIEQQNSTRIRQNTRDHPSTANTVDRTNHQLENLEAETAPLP
UniProt P41145, whole entry: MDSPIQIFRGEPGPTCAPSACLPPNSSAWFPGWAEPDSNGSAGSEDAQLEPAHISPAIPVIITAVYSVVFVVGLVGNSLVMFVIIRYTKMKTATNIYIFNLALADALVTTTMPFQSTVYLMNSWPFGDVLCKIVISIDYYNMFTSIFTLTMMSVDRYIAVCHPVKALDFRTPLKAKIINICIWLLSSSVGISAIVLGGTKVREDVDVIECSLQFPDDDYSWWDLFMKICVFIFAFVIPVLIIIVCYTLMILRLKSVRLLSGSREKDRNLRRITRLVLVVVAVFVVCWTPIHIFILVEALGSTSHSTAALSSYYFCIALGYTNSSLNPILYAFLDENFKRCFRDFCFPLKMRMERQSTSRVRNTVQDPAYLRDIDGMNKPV

The target of one experiment is μ opioid receptor (Homo sapiens (Human), UniProt P35372). Nature of the experiment: Opioid receptor binding test, [3H] DAMGO. The following applies: ratio of Ki values μ/κ. The protocol: (§1) Preparation of Cell Membrane Fraction Samples
(§2) Cell membrane fraction samples were prepared from Chinese Hamster Ovary cells (CHO cells) in which each opioid receptor type was stably expressed, respectively. Sufficient opioid receptor-stably expressed CHO cells secured by subculture were separated out by a trypsin treatment, and then formed into cell sediments by centrifugation. The resulting sediments were homogenized under ice cooling in an ice-cold tris buffer (pH 7.4) containing 50 mM tris-HCl, 5 mM MgCl2 and 1 mM EGTA, and then the suspension was centrifuged (48,000×g, 20 minutes, 4° C.) in a super high speed centrifuge. The resulting sediments were homogenized again in an ice-cold tris buffer (pH 7.4) containing 10% sucrose. […]
(§3) In an opioid receptor binding test, [^3H] […] The radioactivity on the glass filter was measured with the Microbeta 2 (PerkinElmer Co., Ltd.), and nonspecific binding was calculated from the difference in binding capacity between in the presence and absence of a nonradioactive ligand (μ: DAMGO, δ: DPDPE, κ: U-69, 593, each 10 μM). The equilibrium inhibition constant (Ki value) obtained by the opioid receptor binding test was calculated by applying an IC50 value obtained from the inverse S-shaped curve in the test to the Cheng and Prusoff equation (Ki=IC50/(I+L/Kd)) using GraphPad Prism 6 (GraphPad Software, Inc., CA, USA). […]

The target in another experiment is δ opioid receptor (Homo sapiens (Human), UniProt P41143). Nature of the experiment: Opioid receptor binding test, [3H] DPDPE. The following applies: ratio of Ki values δ/κ. The protocol:
as §1, §2, §3

For the next experiment, the target named is κ opioid receptor (Homo sapiens (Human), UniProt P41145). Nature of the experiment: Opioid receptor binding test, [3H] U-69,593. Conditions: read-out: Binding affinity (Ki, pM) κ; CHO cell membrane, [3H] U-69,593 2 nM. The protocol:
as §1, §2, §3

In the case of `CN(Cc1ccccc1)C(=O)C1=C[C@@]23CC[C@]1(O)[C@@H]1Oc4c(O)ccc5c4[C@@]12CCN(CC1CC1)[C@@H]3C5.Cl`, the κ-receptor selectivity (Ki value ratio) μ/κ at μ opioid receptor stood at 8.11. Besides, the κ-receptor selectivity (Ki value ratio) δ/κ at δ opioid receptor worked out at 5.78.
In the case of `CN(Cc1ccccc1)C(=O)C1=C[C@@]23CC[C@]1(O)[C@@H]1Oc4c(O)ccc5c4[C@@]12CCN(CC1CC1)[C@@H]3C5`, the Ki at κ opioid receptor stood at 2.06 pM.

In general, Ki refers to a dissociation constant, usually derived from enzyme kinetics or from competition with a known ligand.
